Results as given in US20150359795A1, “HIGH DRUG LOAD PHARMACEUTICAL COMPOSITIONS WITH CONTROLLABLE RELEASE RATE AND PRODUCTION METHODS THEREOF” (Pharmosa Limited, priority 2014, published 2015).

Tests used:
[1] = Viscosity of saturated or unsaturated aqueous solutions of APIs, rotational viscometer (Brooksfield); format: physicochemical
Procedure: The viscosities of saturated aqueous solutions or aqueous solutions with different weight percentage are measured with Rotational viscometers (Brooksfield, USA) at constant temperature 25° C., and the rotation speed is 5-100 rpm.
(§1) The viscosities of saturated aqueous solutions or aqueous solutions with different weight percentage of the compounds are measured with Rotational viscometers (Brooksfield, USA) at 25° C.

[2] = Tablet-forming ability of APIs (self-granulation with water, hardness and friability of tablets); format: physicochemical; conditions: tablets of 99% API and 1% magnesium stearate, about 100 mg, wet granulated with purified water
Procedure: as §1
Each API listed in Table 1-1 is separately weighed […] and wet granulated in a high shear mixer using purified water. The wet granules are dried in an oven and sieved with 20 mesh screen. Each of the dried granules is separately transferred into a V-blender, and mixed with 5 g of magnesium stearate. The obtained mixture is compressed into tablets. Every tablet weighs about 100 mg, and contains magnesium stearate and an individual API.

For L-arginine α-ketoglutarate, the “Unsaturated aqueous solution at 25° C. Viscosity (cP)” value ([1]; aqueous solution, weight percent 55%) was about 11 cP, the “Saturated aqueous solution at 25° C. Viscosity (cP)” value ([1]; saturated aqueous solution) was about 30 cP and the “The tablet-forming ability Hardness of tablets (kp)” value [2] was 3-8 kp.
